Legend:
[1] = system: HEK-293T; assay: Inhibition of SND1-NLuc/CLuc-MTDH (unknown origin) interaction expressed in HEK-293T cells assessed as inhibition efficiency by measuring fluorescent activity at 1 uM measured after 48 hrs by Split luciferase assay relative to control; assay type: cell-based; settings: Homo sapiens
[2] = system: HEK-293T; assay: Inhibition of SND1-NLuc/CLuc-MTDH (unknown origin) interaction expressed in HEK-293T cells assessed as inhibition efficiency by measuring fluorescent activity at 5 uM measured after 48 hrs by Split luciferase assay relative to control; assay type: cell-based; settings: Homo sapiens
[3] = Toxicity in SPF BALB/c mouse xenografted with human MCF7 cells assessed as change in body weight at 10 to 60 mg/kg, ip measured after 14 days of treatment; assay type: organism-based; settings: in vivo, 336 h, dose 10-60 mg/kg, time 14 day
[4] = Toxicity in SPF BALB/c mouse assessed as pathological changes in heart at 250 to 1000 mg/kg, ip measured for 14 days by HE staining based assay; assay type: organism-based; settings: in vivo, 336 h, dose 250-1000 mg/kg, time 14 day
[5] = Toxicity in SPF BALB/c mouse assessed as change in body weight at 250 to 1000 mg/kg, ip measured for 14 days; assay type: organism-based; settings: in vivo, 336 h, dose 250-1000 mg/kg, time 14 day
[6] = Toxicity in SPF BALB/c mouse assessed as pathological changes in kidney at 250 to 1000 mg/kg, ip measured for 14 days by HE staining based assay; assay type: organism-based; settings: in vivo, 336 h, dose 250-1000 mg/kg, time 14 day
[7] = Toxicity in SPF BALB/c mouse assessed as pathological changes in lung at 250 to 1000 mg/kg, ip measured for 14 days by HE staining based assay; assay type: organism-based; settings: in vivo, 336 h, dose 250-1000 mg/kg, time 14 day
[8] = Toxicity in SPF BALB/c mouse assessed as pathological changes in liver at 250 to 1000 mg/kg, ip measured for 14 days by HE staining based assay; assay type: organism-based; settings: in vivo, 336 h, dose 250-1000 mg/kg, time 14 day

O=S(=O)(Nc1cccc2cccnc12)c1cc(F)ccc1F
inhibition [1]: 6.23%
inhibition [2]: 100%

O=S(=O)(Nc1cccc2ocnc12)c1cccc2cccnc12
inhibition [1]: 24.7%

COc1ccc(Br)cc1S(=O)(=O)Nc1cccc2cccnc12
inhibition [1]: 24.2%
inhibition [2]: 84.5%

O=S(=O)(Nc1cccc2cn[nH]c12)c1cccc2cccnc12
inhibition [1]: 3.05%
inhibition [2]: 28.9%

COC(=O)c1ccccc1S(=O)(=O)Nc1cccc2cccnc12
inhibition [1]: < 1%
inhibition [2]: < 1%

O=S(=O)(Nc1cccc2cc[nH]c12)c1cccc2cccnc12
inhibition [1]: 3.95%
inhibition [2]: 19.8%

COc1ccc(F)cc1S(=O)(=O)Nc1cccc2cccnc12
inhibition [1]: 3.87%
inhibition [2]: 76.5%

O=S(=O)(Nc1cccc2cccnc12)c1ccccc1OC(F)(F)F
inhibition [1]: < 1%
inhibition [2]: 74.8%

COc1ccc(OC)c(S(=O)(=O)Nc2cccc3cccnc23)c1
inhibition [1]: 19.1%
inhibition [2]: 25.6%

Cc1cnc2c(S(=O)(=O)Nc3cccc4cccnc34)cccc2c1
inhibition [1]: 26.9%
inhibition [2]: 96.2%

O=S(=O)(Nc1cc(F)cc2cccnc12)c1cccc2cccnc12
Activity [3]: Non-toxic
Activity [4]: Non-toxic
Activity [5]: Non-toxic
Activity [6]: Non-toxic
Activity [7]: Non-toxic
Activity [8]: Non-toxic

O=S(=O)(Nc1cccc2cccnc12)c1cccc2cccnc12
inhibition [1]: 51.2%
inhibition [2]: 95.2%

O=S(=O)(Nc1cccc2cccnc12)c1ccccc1C(F)(F)F
inhibition [1]: < 1%
inhibition [2]: 95%

Reference: ChEMBL document CHEMBL6087484, “Discovery of Novel Small-Molecule Inhibitors Disrupting the MTDH-SND1 Protein-Protein Interaction” (J Med Chem, 2025)
